The assay addresses T1, human PI3Kγ catalytic domain (Homo sapiens, UniProt P48736).
T1 construct: made in house; host or cells: baculovirus expression (virus obtained from the MRC, United Kingdom)
As to the kind of experiment: PI3K Kinase-Glo assay. Format: biochemical. As for the experimental part:
PI3K Kinase-Glo Assay. Recombinantly expressed human PI3Kγ catalytic domain was preincubated with various concentration of inhibitors with a final DMSO concentration of 2% in reaction buffer (20 mM Tris pH 7.5, 100 mM NaCl, 10 mM MgCl2) for 1 hour at room temperature before this mixture was added to a solution of 0.1 mg/mL D-myo-Phosphatidylinositol 4,5-biphosphate (PtdIns (4,5)P2, Echelon Biosciences) and 10 μM ATP. 14 pmoles PI3K was used in compounds DW12, DW12Me, EAd125 comparison and 1.4 pmoles PI3K was used for compounds E5, E5E2, E5E1 measurements. The kinase reaction was carried out in a 50 μL final volume in a 96-well microtiter plate at 37° C. for 3 hours before 50 μL Kinase-Glo® (Promega) developing solution was added into the mixture to generate a luminescence signal. The signal was recorded using the PerkinElmer Wallac 1420 luminometer using a luminescence filter. Data were processed and IC50 values were derived from using 2% DMSO and with no kinase as controls and a sigmoidal dose response curve fitting by GraphPad Prism.
(Kinase-Glo reads ATP consumption through a luciferase reaction.)

Amino acid sequences for entries named in this document (tags omitted). Residues count along the entry.
UniProt P48736, 144-1102 limits assumed: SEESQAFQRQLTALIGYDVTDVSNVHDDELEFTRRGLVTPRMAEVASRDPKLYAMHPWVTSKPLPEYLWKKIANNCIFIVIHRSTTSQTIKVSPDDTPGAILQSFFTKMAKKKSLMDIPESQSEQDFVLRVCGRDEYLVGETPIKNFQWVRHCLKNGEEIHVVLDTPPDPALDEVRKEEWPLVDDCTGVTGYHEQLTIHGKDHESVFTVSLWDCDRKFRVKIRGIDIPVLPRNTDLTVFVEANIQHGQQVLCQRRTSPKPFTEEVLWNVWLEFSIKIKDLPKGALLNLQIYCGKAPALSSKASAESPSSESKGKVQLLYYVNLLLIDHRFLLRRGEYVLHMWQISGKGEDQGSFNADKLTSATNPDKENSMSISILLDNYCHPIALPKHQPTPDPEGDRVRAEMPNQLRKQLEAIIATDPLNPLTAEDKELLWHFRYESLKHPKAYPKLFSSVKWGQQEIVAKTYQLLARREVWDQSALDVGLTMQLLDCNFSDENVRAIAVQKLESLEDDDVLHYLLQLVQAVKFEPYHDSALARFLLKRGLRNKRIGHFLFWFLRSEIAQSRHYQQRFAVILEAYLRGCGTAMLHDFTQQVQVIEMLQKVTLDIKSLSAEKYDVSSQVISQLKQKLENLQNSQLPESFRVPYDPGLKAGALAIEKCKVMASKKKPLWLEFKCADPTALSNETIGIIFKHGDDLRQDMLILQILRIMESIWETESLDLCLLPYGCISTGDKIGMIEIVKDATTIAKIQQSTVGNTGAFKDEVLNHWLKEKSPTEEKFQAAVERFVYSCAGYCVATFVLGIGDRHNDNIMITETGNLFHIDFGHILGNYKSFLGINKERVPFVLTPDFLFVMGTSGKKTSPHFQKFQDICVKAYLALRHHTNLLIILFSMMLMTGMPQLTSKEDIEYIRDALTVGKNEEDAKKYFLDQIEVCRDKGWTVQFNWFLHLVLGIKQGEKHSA

In the case of `O=c1cc(N2CCOCC2)oc2c(-c3ccccc3)cccc12` [LY294002, 2-(4-morpholinyl)-8-phenyl-4H-1-benzopyran-4-one, reference compound], where the note is “4 μM, compared with E5E2, FIGS. 3B and 9”, the “specificity for PI3Kγ relative to the other kinases profiled” value is “less specific”. Further, the “PI3K inhibition / inhibitory potency (in words)” value (comparison among the inhibitors, FIG. 2C, FIG. 9) was “less potent”.

Values taken from patent publication US8106039B2, “Metal complex phosphatidyl-inositol-3-kinase inhibitors” (The Trustees Of The University Of Pennsylvania, priority 2008, dated 2012).
